The numbers were not newly measured in PubChem BioAssay AID977610, which cites them from elsewhere.

One may read the pKi as the Ki on a negative log10 scale, so that one unit is a factor of ten.

pKi: −log10 of the molar value.

Common to all, as to experiment: PubChem AID 977610
In data set [1] the target is Oxysterols receptor LXR-alpha. Conditions: PDB protein-ligand complexes, literature Ki, protein: Oxysterols receptor LXR-alpha.
The target of data set [2] is Beta-galactosidase(S796A mutant). As to conditions: PDB protein-ligand complexes, literature Ki; protein: Beta-galactosidase(S796A mutant); PDB entry 3T09.
For data set [3], the target named is Beta-galactosidase(S796D mutant). As to conditions: PDB protein-ligand complexes, literature Ki; protein: Beta-galactosidase(S796D mutant); PDB entry 3T2Q.
In data set [4] the target is Beta-galactosidase(S796T mutant). Conditions: PDB protein-ligand complexes, literature Ki; protein: Beta-galactosidase(S796T mutant); PDB entry 3T0D.
The target in data set [5] is Beta-galactosidase. Conditions: PDB protein-ligand complexes, literature Ki; protein: Beta-galactosidase; PDB entry 3I3B.
Data set [6] deals with E. coli (lacZ) beta-galactosidase (N460T mutant). Conditions: PDB protein-ligand complexes, literature Ki; protein: E. coli (lacZ) beta-galactosidase (N460T mutant); PDB entry 3VDB.
For data set [7], the target named is Sulfotransferase 1A1 variant b9. Conditions: PDB protein-ligand complexes, literature Ki, protein: Sulfotransferase 1A1 variant b9.
In data set [8] the target is glycogen phosphorylase b. Conditions: PDB protein-ligand complexes, literature Ki, protein: glycogen phosphorylase b.
The target of data set [9] is hydroxynitrile lyase. As to conditions: PDB protein-ligand complexes, literature Ki, protein: hydroxynitrile lyase.
Data set [10] has as its target acetylcholinesterase. Conditions: PDB protein-ligand complexes, literature Ki, protein: acetylcholinesterase.
Data set [11] concerns the target Purple acid phosphatase. As to conditions: PDB protein-ligand complexes, literature Ki, protein: Purple acid phosphatase.
For data set [12], the target named is protein kinase ck2, alpha subunit. Conditions: PDB protein-ligand complexes, literature Ki, protein: protein kinase ck2, alpha subunit.
Data set [13] concerns the target Capitella teleta AChBP. As to conditions: PDB protein-ligand complexes, literature Ki, protein: Capitella teleta AChBP.
Data set [14] has as its target Beta-lactamase. Conditions: PDB protein-ligand complexes, literature Ki, protein: Beta-lactamase.
Data set [15] deals with Polymerase protein PA. Conditions: PDB protein-ligand complexes, literature Ki, protein: Polymerase protein PA.
Data set [16] deals with rice BGlu1 Beta-glucosidase E176Q mutant. As to conditions: PDB protein-ligand complexes, literature Ki, protein: rice BGlu1 Beta-glucosidase E176Q mutant.
In data set [17] the target is carbonic anhydrase ii. Conditions: PDB protein-ligand complexes, literature Ki, protein: carbonic anhydrase ii.
Data set [18] concerns the target maltodextrin binding protein. As to conditions: PDB protein-ligand complexes, literature Ki, protein: maltodextrin binding protein.
Data set [19] has as its target Alpha-isopropylmalate synthase. Conditions: PDB protein-ligand complexes, literature Ki, protein: Alpha-isopropylmalate synthase.
The target in data set [20] is thermolysin. Conditions: PDB protein-ligand complexes, literature Ki; protein: thermolysin; PDB entry 1ZDP.
The target of data set [21] is penicillin amidohydrolase. As to conditions: PDB protein-ligand complexes, literature Ki, protein: penicillin amidohydrolase.
Data set [22] deals with Calmodulin-domain protein kinase 1. As to conditions: PDB protein-ligand complexes, literature Ki; protein: Calmodulin-domain protein kinase 1; PDB entry 3V5T.
The target of data set [23] is Carbonic anhydrase 2. As to conditions: PDB protein-ligand complexes, literature Ki, protein: Carbonic anhydrase 2.
Data set [24] deals with urokinase-type plasminogen activator. Conditions: PDB protein-ligand complexes, literature Ki, protein: urokinase-type plasminogen activator.
Data set [25] deals with thymidine kinase. As to conditions: PDB protein-ligand complexes, literature Ki, protein: thymidine kinase.
Data set [26] has as its target beta-phosphoglucomutase. As to conditions: PDB protein-ligand complexes, literature Ki, protein: beta-phosphoglucomutase.
The target of data set [27] is alpha-mannosidase ii. As to conditions: PDB protein-ligand complexes, literature Ki; protein: alpha-mannosidase ii; PDB entry 1QWU.
In data set [28] the target is protocatechuate 3,4-dioxygenase. As to conditions: PDB protein-ligand complexes, literature Ki, protein: protocatechuate 3,4-dioxygenase.
Data set [29] addresses protein-tyrosine phosphatase. As to conditions: PDB protein-ligand complexes, literature Ki, protein: protein-tyrosine phosphatase.
Data set [30] deals with calmodulin-sensitive adenylate cyclase. As to conditions: PDB protein-ligand complexes, literature Ki; protein: calmodulin-sensitive adenylate cyclase; PDB entry 1PK0.
For data set [31], the target named is Escherichia coli menaquinol:fumarate reductase (QFR). As to conditions: PDB protein-ligand complexes, literature Ki, protein: Escherichia coli menaquinol:fumarate reductase (QFR).
Data set [32] concerns the target Human Orotidine 5-monophosphate Decarboxylase. As to conditions: PDB protein-ligand complexes, literature Ki, protein: Human Orotidine 5-monophosphate Decarboxylase.
For data set [33], the target named is beta-lactamase ctx-m-9. As to conditions: PDB protein-ligand complexes, literature Ki, protein: beta-lactamase ctx-m-9.
Data set [34] addresses beta-lactamase. Conditions: PDB protein-ligand complexes, literature Ki; protein: beta-lactamase; PDB entry 1IEM.
The target in data set [35] is beta-lactamase tem. Conditions: PDB protein-ligand complexes, literature Ki; protein: beta-lactamase tem; PDB entry 1NY0.

With `CCCc1c(OCCCSc2ccc(CC(=O)O)cc2Cl)ccc2c(C(F)(F)F)noc12`, the pKi in data set [1] (PDB entry 3IPS) was 7.19.

On to `O=C1O[C@H](CO)[C@H](O)[C@H](O)[C@H]1O`, for which the pKi in [2] is 3.80; in data set [3], 3.66; in data set [4] it was 2.37; in data set [5], 2.23; in data set [6] it was 2.52.

`N#Cc1cc2ccc(O)cc2oc1=O`: in data set [7] (PDB entry 3QVV), the negative logarithm of the Ki (pKi) is 4.42. Consider `O=C1NC(=O)[C@@]2(N1)O[C@H](CO)[C@@H](O)[C@H](O)[C@H]2O`, for which the pKi in data set [8] (PDB entry 1A8I) was 5.52.

`OCC(Cl)(Cl)Cl`: the pKi in data set [9] (PDB entry 4YAS) was 3.41. `CCC1=C[C@@H]2Cc3nc4cc(Cl)ccc4c(N)c3[C@H](C1)C2`: the pKi in data set [10] (PDB entry 1E66) is 9.89. For the compound `CC1(C)Cc2cccc(CO)c2O1`, the pKi in [11] (PDB entry 4DT2) is 4.37. Take `CN(C)c1nc2c(Br)c(Br)c(Br)c(Br)c2[nH]1`: the pKi in data set [12] (PDB entry 1ZOE) was 7.40. For the compound `CN1[C@@H](CC(=O)c2ccccc2)CCC[C@H]1C[C@H](O)c1ccccc1`, the negative-log Ki (pKi) in [13] (PDB entry 4AFH) is 9.54. As to `O=S(=O)(NCB(O)O)c1ccc(-c2nn[nH]n2)cc1`, in data set [14] (PDB entry 4E3J), the pKi was 8.92. As for `CC(=O)Nc1cccc(-c2nc(C(=O)O)c(O)c(=O)[nH]2)c1`, in [15] (PDB entry 4E5J), the pKi was 4.73.

With `OC[C@H]1O[C@@H](O[C@H]2[C@H](O)[C@@H](O)[C@H](O[C@H]3[C@H](O)[C@@H](O)[C@H](O[C@H]4[C@H](O)[C@@H](O)[C@H](O)O[C@@H]4CO)O[C@@H]3CO)O[C@@H]2CO)[C@H](O)[C@@H](O)[C@@H]1O`, in [16] (PDB entry 3F5J), the pKi was 4.28. In the case of `OC(O)(C(F)(F)F)C(F)(F)F`, the pKi in data set [9] (PDB entry 5YAS) is 3.26. For `c1cnc2cc3c(cc2n1)[C@@H]1CNC[C@H]3C1`, the pKi in data set [13] (PDB entry 4AFG) was 8.30. With `NS(=O)(=O)C(F)(F)F`, in data set [17] (PDB entry 1BCD), the pKi was 8.70. With `OC[C@H]1O[C@H](O[C@H]2[C@H](O)[C@@H](O)[C@@H](O[C@H]3[C@H](O)[C@@H](O)[C@@H](O[C@H]4[C@H](O)[C@@H](O)[C@@H](O)O[C@@H]4CO)O[C@@H]3CO)O[C@@H]2CO)[C@H](O)[C@@H](O)[C@@H]1O`, the pKi in data set [18] (PDB entry 4MBP) was 5.64. With `CC[C@H](C)[C@H](N)C(=O)O`, the pKi in [19] (PDB entry 3F6G) and in [19] (PDB entry 3F6H) was 4.72 each time.

Take `O=C(O)CNC(=O)[C@@H](CS)Cc1ccccc1`: in data set [20], the pKi was 5.74. For the compound `Oc1ccccc1`, the negative logarithm of the Ki (pKi) in data set [21] (PDB entry 1AI7) was 4.09. For `CCOc1ccc2cc(-c3nn(C[C@H](C(C)C)N(C)C)c4ncnc(N)c34)ccc2c1`, in [22], the pKi is 8.22.

Regarding `COC[C@H](NC(C)=O)C(=O)NCc1ccccc1`, the pKi in data set [23] (PDB entry 3IEO) is 6.48.

Turning to `Cc1ccc(-c2nc(C(=O)O)cs2)cc1`, in data set [11] (PDB entry 4DHL), the pKi was 4.48. `N=C(N)c1ccc(CNC(=O)[C@H](CO)NC(=O)[C@@H](CO)NS(=O)(=O)Cc2ccccc2)cc1`: the pKi in data set [24] (PDB entry 1VJA) was 7.70. Turning to `Cc1cn([C@H]2C[C@H](O)[C@]3(CO)C[C@H]23)c(=O)[nH]c1=O`, the pKi in data set [25] (PDB entry 1E2K) was 4.94; in data set [25] (PDB entry 1E2L), 4.29.

With `O=C(O)Cc1cccc(OCCCN(Cc2cccc(C(F)(F)F)c2Cl)CC(c2ccccc2)c2ccccc2)c1`, in [1] (PDB entry 3IPQ), the pKi was 7.57. As to `O=P(O)(O)O[C@H]1O[C@H](CO)[C@H](O)[C@H](O)[C@H]1O`, the pKi in [26] (PDB entry 1Z4N) and in data set [26] (PDB entry 1Z4O) was 4.52 each time. `OC[C@]1(F)OC[C@@H](O)[C@@H](O)[C@@H]1O`: the pKi in data set [27] was 3.22. On to `COc1ccc2ccc(C(=N)N)cc2c1C1CNN(S(C)(=O)=O)C1` (centres undefined), for which the negative logarithm of the Ki (pKi) in data set [24] (PDB entry 1SQT) is 6.20. As to `O=C(O)c1ccc(O)cc1`, the pKi in data set [23] (PDB entry 4E3G) was 4.97; in data set [28] (PDB entry 3PCC), 3.62; in data set [28] (PDB entry 3PCH), 5.40.

For the compound `COC(=O)N[C@]1(C(N)=O)O[C@H](CO)[C@@H](O)[C@H](O)[C@H]1O`, in data set [8] (PDB entry 1B4D), the pKi was 4.81.

On to `O=S(=O)(O)CCN1CCN(CCO)CC1`, for which the pKi was 3.60 in [29] (PDB entry 1D1P) and 2.74 in data set [29] (PDB entry 1DG9). Consider `CC1=C[C@H]2Cc3[nH]c(=O)ccc3[C@]3(C1)NCCC[C@H]23`, for which the pKi in data set [10] (PDB entry 1GPN) was 6.48. Consider `OC[C@H]1O[C@H](O[C@H]2[C@H](O)[C@@H](O)[C@@H](O[C@H]3[C@H](O)[C@@H](O)[C@@H](O)O[C@@H]3CO)O[C@@H]2CO)[C@H](O)[C@@H](O)[C@@H]1O`, for which the pKi in data set [18] (PDB entry 3MBP) is 6.80. Regarding `Nc1ncnc2c1ncn2CCOCP(=O)(O)OP(=O)(O)OP(=O)(O)O`, the pKi in [30] was 7.57. For `O=S(=O)(NCB(O)O)c1ccc(-c2nn[nH]n2)cc1C(F)(F)F`, the pKi in [14] (PDB entry 4E3N) was 10.30. In the case of `O=C(O)CC(=O)C(=O)O`, in [31] (PDB entry 3P4Q), the pKi is 6.52. For `Cn1cnc(-c2nc(C(=O)O)c(O)c(=O)[nH]2)c1`, the pKi in data set [15] (PDB entry 4E5I) is 5.30. With `O=C(NO)[C@H](O)[C@H](O)CO`, the pKi in [12] (PDB entry 2GYI) is above 7.00. Turning to `O=C(O)Cc1ccc([N+](=O)[O-])cc1`, in [21] (PDB entry 1AJN), the pKi was 2.63. Consider `OC[C@H]1OC(O[C@@H]2[C@@H](O)[C@H](O)O[C@H](CO)[C@H]2O)[C@H](O)[C@@H](O)[C@@H]1O` (some centres undefined), for which the pKi in data set [16] (PDB entry 3F5L) was 3.72. For the compound `NC(CO)(CO)CO`, in data set [17] (PDB entry 1H4N), the pKi is 4.92.

`O=c1[nH]c(=O)n([C@@H]2O[C@H](COP(=O)(O)O)[C@@H](O)[C@H]2O)cc1F`: the pKi in data set [32] (PDB entry 3G3D) is 4.74; in data set [32] (PDB entry 3G3M), 5.96. Regarding `O=[N+]([O-])c1ccc(O)cc1`, the pKi in [7] (PDB entry 3QVU) is 3.55.

With `O=C(O)CCCC(=O)O`, in data set [31] (PDB entry 3P4R), the pKi is 2.72. Consider `CC(C)(O/N=C(\C(=O)N[CH2][Al])c1csc(N)n1)C(=O)O`, for which the pKi in data set [33] (PDB entry 1YLY) is 7.82; in data set [34] it was 7.70. For `CCOc1ccc2ccccc2c1C(=O)N[CH2][Al]`, the pKi in [33] (PDB entry 1YMS) is 5.92; in [35] it was 5.85.
